Measurements as given in ChEMBL document CHEMBL1125505, “Nucleosides and nucleotides. 112. 2-(1-Hexyn-1-yl)adenosine-5'-uronamides: a new entry of selective A2 adenosine receptor agonists with potent antihypertensive activity” (J Med Chem, 1992).

By UniProt entry, the sequences of proteins in these tests, tags left out.
UniProt P25099, whole entry: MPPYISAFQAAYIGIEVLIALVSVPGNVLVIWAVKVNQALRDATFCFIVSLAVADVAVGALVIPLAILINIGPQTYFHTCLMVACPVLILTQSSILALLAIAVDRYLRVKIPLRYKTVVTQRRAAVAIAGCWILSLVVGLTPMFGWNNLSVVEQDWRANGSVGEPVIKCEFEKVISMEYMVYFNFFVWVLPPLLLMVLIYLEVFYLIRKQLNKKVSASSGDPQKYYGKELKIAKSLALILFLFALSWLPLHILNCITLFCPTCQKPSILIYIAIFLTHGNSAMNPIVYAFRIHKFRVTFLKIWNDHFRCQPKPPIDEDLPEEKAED

Target: Adenosine receptor A1 (Rattus norvegicus, UniProt P25099)
Assay: Binding affinity against adenosine A1 receptor from rat brain membranes using [3H]cyclohexyladenosine as radioligand.

Ki [nM]	Compound
529	Nc1nc(Nc2ccccc2)nc2c1ncn2[C@@H]1O[C@H](CO)[C@@H](O)[C@H]1O
1140	CCNC(=O)[C@H]1O[C@@H](n2cnc3c(N)nc(NCCc4ccc(CCC(=O)O)cc4)nc32)[C@H](O)[C@@H]1O [CGS-21680]
